Values quoted from earlier work in patent US8697718B2, “Pack of medicinal tablets” (RB Pharmaceuticals Limited, priority 2007, dated 2014).

Conditions: stated in WO 2005/117838

buprenorphine hydrochloride
degradation in acid or alkaline conditions: shows degradation
